# AlphaSeq binding of Ab-14 light chain variants to a spike HR2 peptide

Source: Li et al. 2023 (doi:10.1038/s41467-023-39022-2), MIT Lincoln Laboratory and A-Alpha Bio; data file from the FLAb repository.

Antigen: PDVDLGDISGINAS, a 14-residue peptide of the SARS-CoV-2 spike HR2 region.

Ab-14 is the parent antibody, in scFv form: VH, then a 15-residue (Gly4Ser)3 linker, then VL. The heavy chain is unchanged in all variants.
VH: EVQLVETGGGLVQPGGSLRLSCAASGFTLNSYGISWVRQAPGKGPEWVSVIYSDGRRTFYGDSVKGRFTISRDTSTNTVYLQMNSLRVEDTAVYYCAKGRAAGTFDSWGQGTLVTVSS
VL: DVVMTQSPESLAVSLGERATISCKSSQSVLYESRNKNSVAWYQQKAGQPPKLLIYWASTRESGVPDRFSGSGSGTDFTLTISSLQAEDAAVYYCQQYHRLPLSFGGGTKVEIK

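The starting antibody came from a phage panning campaign against this peptide. These sequences belong to a second round, designed from the earlier measurements on random variants of the parent. Several design methods are mixed in this list. The assay is AlphaSeq: two haploid yeast populations carry antibody and antigen on their surface. Binding brings cells together so that they mate, and sequencing counts the barcode pairs among the diploids. A regression on co-assayed BCL2-family reference pairs converts the normalised counts of each replicate to an apparent Kd. The assay was run in six technical replicates.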

The parent's light chain CDRs are KSSQSVLYESRNKNSVA, WASTRES, QQYHRLPLS; each variant's own CDRs replace them letter for letter.
Kd is apparent (estimated from mating counts) and averaged on the log scale over replicates with a signal. Smaller is tighter.
"nd" means that the variant was in the library but no mating with the target was seen in any replicate; the authors take this as a sign of poor binding, and no number exists.
Entries are sorted by rising average, undetected variants last.
The parent sequence was in this pool as ten entries: three were never detected, three once, and four in most replicates, with averages from 2.2 nM to 240 nM.
Background: pairings of all light chain designs with three empty control strains gave a value in 4% of cases (median 430 nM, 5th percentile 38 nM). Values in that range, when seen in few replicates, are hard to tell from nonspecific mating. For each scFv, signals with the empty controls are counted beside the result.
A sequence measured in both rounds can read differently, since the two assays cover different ranges.
In the paper, a design with two or fewer of six values counts as a poor binder.

CDR-L1,CDR-L2,CDR-L3,Kd,replicates with signal,signal with controls
KLSQSWLYESRNKNNVA,NASTRES,QDYHRLPLS,260 pM,6/6,1/18
ALQMERLGQKQWQNNIA,NQDMRTA,QQYYMLPLV,320 pM,6/6,1/18
KLRQSTLYESRNKNSVA,NASTRES,QQYHRLPLS,510 pM,6/6,1/18
KVSNSVDGEDRNKNAVA,HASTRES,QQYHRLPLS,520 pM,6/6,0/18
KISQSVLYESRNKNSVA,AASTRES,QQYHRLPLS,530 pM,6/6,2/18
NLSGMTAHETVKEKNIA,ERSTREA,QQYNRLPLS,690 pM,6/6,1/18
KSEQSVLYESRNKNSVA,GASTRES,QQYHRLPLS,720 pM,6/6,0/18
KLSASVLPESRNKNSVA,NASTRES,QQYHRLPLS,730 pM,6/6,0/18
KSSISYLGEIRNKNSVA,EASTRES,QQYHRLPLS,810 pM,6/6,0/18
MISQLMNMGQFAINSVA,QASLRND,QQYDRLPLA,850 pM,6/6,0/18
KLQQSVLYESRNKNSVA,NASTRCS,QQYHRLPLS,940 pM,6/6,0/18
KLSQSELYESRNKNSVA,QASTRMS,QQYHRLPLS,950 pM,6/6,0/18
KLSQSNLYESRNKNSVA,NASQREV,QQYHRLPLS,1.0 nM,6/6,1/18
HSSPSVYYESRNKNSVA,NASTRES,QQYHRLPLS,1.1 nM,6/6,1/18
KLSQSVLYESRNKNSVA,QASTRLS,QQYHRLPLS,1.2 nM,6/6,0/18
KSSQSVPYESHNKNSVA,NASTRMS,QQYHRLPLS,1.2 nM,6/6,1/18
KFSYSELYEERNQNSVA,GASQRLS,QQYHRLPLS,1.2 nM,6/6,0/18
KLSQSQEYESRNKNSVA,NASTRLT,QQYHRLPLS,1.3 nM,6/6,0/18
KVSMSVLYESRVKNSVA,EASQRES,QQYHRLPLS,1.4 nM,6/6,1/18
KVSQSVLFESRNSNSVA,QESTRES,QQYHRLPLS,1.4 nM,6/6,1/18
KESFSVLYESPYKNSVA,GASTRES,QQYHRLPLS,1.4 nM,6/6,3/18
KFQQSDPYESRNKNSVA,SASTRSS,QQYHRLPLS,1.4 nM,6/6,0/18
KVSQLEPYESRMKNSVA,NASTREH,QQYHRLPLS,1.5 nM,6/6,3/18
KVSQSDLYESRNKNQVA,EASTRES,QQYHRLPLS,1.5 nM,6/6,3/18
KVHQSQLYESRQINSVA,NASQRCS,QQYHRLPLS,1.6 nM,6/6,0/18
QLYAVQDMTSKNQNSVA,EQSTREN,QQYHRLPLS,1.7 nM,6/6,0/18
HLSQSWLMESRNSNSVA,DASTRLS,QQYHRLPLS,1.8 nM,6/6,0/18
KVPQSFLYESRNKNSVA,EASTRES,QQYHRLPLS,1.8 nM,6/6,0/18
KSSQGVLYESRNKNSVA,GASTRES,QQYHRLPLS,2.3 nM,6/6,1/18
KVMQSVPYESRNKNSVA,NASQREL,QQYHRLPLS,2.5 nM,6/6,2/18
KLSQSKLYESRNKNSVA,GASTRES,QQYHRLPLS,2.5 nM,6/6,0/18
QLGQTIWADIMNKKSIA,AEETLID,QQYNRLPFS,2.6 nM,6/6,2/18
KLSNSVLYESRMKNSVA,HASTRES,QQYHHLPLS,3.0 nM,6/6,0/18
KMDQWVFYGDRWKNSVA,NASTREQ,QQYHRLPLS,3.0 nM,6/6,1/18
KSQQSVPYESRNKNSVA,NASTRES,QQYHRLPLS,3.1 nM,6/6,0/18
MISQILNMGSFAINSVA,QASLRNE,QQYDRLPLM,3.1 nM,6/6,2/18
KAQQSDLYESRNKNSVA,SASTRSS,QQYHRLPLQ,3.2 nM,6/6,1/18
NMQMQDDLMLNAKQNVA,GVDMREE,QQYFRLPLL,3.2 nM,6/6,1/18
KFSISYLYESMNKNSVA,NGSTRES,QQYHRLPLS,3.3 nM,6/6,0/18
KISQSVLRESRNKNSVA,WASTREV,QQYHYLPLS,3.3 nM,6/6,2/18
KSYQSVLYESMNSNSVA,NASTRES,QQYHRLPLS,3.3 nM,6/6,1/18
HFAKQLTSLANSKQNVA,NASTVMV,QHYNRLPLS,3.4 nM,2/6,0/18
KFSQMANQFSVSMNAVA,EMSTRED,QQYNRLPLA,3.4 nM,6/6,0/18
RLSNQETEQIQHANSIA,DRDEVDV,QQYAHLPLS,3.4 nM,6/6,0/18
TISQLMMYESRNKNNVA,GTSTRES,QCYHRLPLS,4.1 nM,6/6,2/18
KSSISDLYESRNKNSVA,EASTREQ,QQYHRLPLS,4.2 nM,6/6,0/18
KVQFQVLYSSRNKNSVA,QANTRES,QQYHRLPLS,4.2 nM,6/6,1/18
ESSQSVLYESRNTNSVA,GASTRES,QQYHRLPLQ,5.4 nM,6/6,0/18
KLVGPDDNDNQDMRAVA,DVNTLGN,QQYHRLPLD,5.5 nM,6/6,3/18
KLSGSQLYESRMKNSVA,NASTRES,QQYHRLPLS,5.7 nM,6/6,1/18
KISQMVRVGATANNSIA,EEQTRAK,QQYHRLPLS,7.6 nM,6/6,0/18
TISQVMNTLTRHGNNVA,DLEERED,QQYFRLPLS,9.5 nM,6/6,0/18
KITATMRFEQKASNNIA,EVTNRSK,QQYYRLPLS,9.8 nM,6/6,2/18
KVSQSVLYESRNKNSVA,GASTRES,QQYPRLPLS,9.8 nM,6/6,1/18
MISQLYNMGQFAINSVA,QASTRND,QQYDRLPLM,15 nM,6/6,0/18
KITHQMRTGMAQRNAMA,NGAMRVE,QFYSRLPLF,15 nM,6/6,4/18
KIEISNSVSLRGTRAIA,QGSTRAH,QQYHRLPLT,22 nM,6/6,0/18
KSSQSVLYESSNKNSVA,WASTREE,QQYVRLPLS,25 nM,6/6,1/18
TITMFMDNASHNRNNVA,DTSTLGS,QSYDRLPLS,26 nM,6/6,3/18
KIYMMTGFQSRNADSIA,DNSTRGR,QQYHRLPLS,28 nM,2/6,0/18
KSSASFLYESRNKNSVA,WASTRES,QQYHRLPLS,30 nM,6/6,0/18
HLQEQSFVGQKDKWSVA,ETECKYN,QQYAQLPLM,32 nM,5/6,0/18
KLSATYRYESQNKNSIA,EMTTRAS,QCYHRLPLS,59 nM,6/6,1/18
KPRQQTLYETRNKNSVA,WASTREE,QQYHRLPLS,97 nM,3/6,0/18
NIQDNEGGLSSQKNSVA,STEERSD,QSYHRLPLS,120 nM,6/6,1/18
KSSQSVLYESRNDNSVA,LASTRES,QQYHRLPLS,120 nM,3/6,0/18
KLSTGTYGLTGHTSSVA,HDEMRWE,QQYHKLPLI,120 nM,6/6,1/18
KVQMLWCMWSRNLNSVA,HASTRES,QQYHRLPLS,170 nM,3/6,0/18
KSSQSVLYESRNKNSVA,WASTRES,QQYHDLPLS,180 nM,2/6,1/18
KAMVSWLYWSRNQNSVA,NASQREH,QQYHRLPLS,190 nM,1/6,1/18
KYSQSNLYEQRNFNSVA,NASYRES,QQYHRLPLS,550 nM,1/6,0/18
HMRHEFYQYDNYDKAVA,HANQRHN,QQYSRLPFS,640 nM,3/6,0/18
IVSQLMLWGMHAKNSIA,EAQTRYN,QQYDRLPLM,nd,0/6,0/18
KSSQSVLYESRNKNSVA,WGSTREE,QQYHRLLLS,nd,0/6,0/18
HSSPSVLYESRNKNSVA,NASTRES,QQYHRLPLM,nd,0/6,0/18
SLGLVTMLEYANRNNVA,NNSTRES,QQYDRLPLS,nd,0/6,0/18
KSSQSVLYISLNSNSVA,WASVRES,DQWHSLPLS,nd,0/6,0/18
KSSQSVLYEDRNCNSVA,WASTRES,QQYHWVPLE,nd,0/6,0/18

The opening 13 entries, copied out:

CDR-L1,CDR-L2,CDR-L3,Kd,replicates with signal,signal with controls
KLSQSWLYESRNKNNVA,NASTRES,QDYHRLPLS,260 pM,6/6,1/18
ALQMERLGQKQWQNNIA,NQDMRTA,QQYYMLPLV,320 pM,6/6,1/18
KLRQSTLYESRNKNSVA,NASTRES,QQYHRLPLS,510 pM,6/6,1/18
KVSNSVDGEDRNKNAVA,HASTRES,QQYHRLPLS,520 pM,6/6,0/18
KISQSVLYESRNKNSVA,AASTRES,QQYHRLPLS,530 pM,6/6,2/18
NLSGMTAHETVKEKNIA,ERSTREA,QQYNRLPLS,690 pM,6/6,1/18
KSEQSVLYESRNKNSVA,GASTRES,QQYHRLPLS,720 pM,6/6,0/18
KLSASVLPESRNKNSVA,NASTRES,QQYHRLPLS,730 pM,6/6,0/18
KSSISYLGEIRNKNSVA,EASTRES,QQYHRLPLS,810 pM,6/6,0/18
MISQLMNMGQFAINSVA,QASLRND,QQYDRLPLA,850 pM,6/6,0/18
KLQQSVLYESRNKNSVA,NASTRCS,QQYHRLPLS,940 pM,6/6,0/18
KLSQSELYESRNKNSVA,QASTRMS,QQYHRLPLS,950 pM,6/6,0/18
KLSQSNLYESRNKNSVA,NASQREV,QQYHRLPLS,1.0 nM,6/6,1/18